Experimental findings from PMC3678023 (Journal of Molecular Biology, 2013) are described below.

Amino acid sequences for entries named in this document (tags omitted).
UniProt P31652, whole entry: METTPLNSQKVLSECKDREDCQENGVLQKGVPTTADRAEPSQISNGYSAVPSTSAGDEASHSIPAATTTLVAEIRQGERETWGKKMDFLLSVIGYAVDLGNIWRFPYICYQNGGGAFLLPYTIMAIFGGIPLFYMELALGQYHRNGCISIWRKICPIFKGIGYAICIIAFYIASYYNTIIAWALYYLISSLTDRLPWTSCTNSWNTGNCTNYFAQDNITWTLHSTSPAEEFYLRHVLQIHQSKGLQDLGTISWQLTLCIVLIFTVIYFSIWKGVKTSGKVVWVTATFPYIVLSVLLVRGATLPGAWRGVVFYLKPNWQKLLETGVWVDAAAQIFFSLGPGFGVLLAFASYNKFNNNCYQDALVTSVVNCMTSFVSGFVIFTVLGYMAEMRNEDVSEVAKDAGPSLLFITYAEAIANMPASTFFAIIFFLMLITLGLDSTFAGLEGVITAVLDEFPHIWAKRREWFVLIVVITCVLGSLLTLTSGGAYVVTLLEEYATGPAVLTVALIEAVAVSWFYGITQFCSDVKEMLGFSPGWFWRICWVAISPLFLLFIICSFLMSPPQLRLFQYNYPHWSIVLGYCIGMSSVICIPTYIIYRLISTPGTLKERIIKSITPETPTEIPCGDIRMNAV

Experiment [1] concerns the target wild-type SERT (Rattus norvegicus, UniProt P31652). The experiment is described as follows: biochemical.
Experiment [2] has as its system thermostabilised SERT mutants SAH6 and SAH7. Description: Competition binding, statements covering both thermostabilised mutants. Also on record: species or system rat. As to conditions: over SAH6 and SAH7.

As usually defined, the Ki is a measure of affinity in units of concentration, obtained from inhibition or displacement. The compound `COC(=O)[C@H]1[C@@H](OC(=O)c2ccccc2)C[C@@H]2CC[C@H]1N2C` [cocaine] showed a Ki in experiment [1] of 1560 ± 21 nM.

Consider `CN(C)CCCN1c2ccccc2CCc2ccccc21` [imipramine], for which the “Lower affinity versus wild-type transporter” value in experiment [2] was “up to 90 fold”.

`Fc1ccc([C@@H]2CCNC[C@H]2COc2ccc3c(c2)OCO3)cc1` [paroxetine]: the “Lower affinity versus wild-type transporter” value in experiment [2] is listed as “up to 90 fold”. The compound also registered a Ki in experiment [1] of 0.01 ± 0.02 nM.
